Results as given in ChEMBL document CHEMBL4152231, “Identification of novel 2-benzyl-1-indanone analogs as interleukin-5 inhibitors” (Eur J Med Chem, 2018).

Target: T1, Interleukin-5 (Mus musculus) (UniProt P04401)
T1 sequence (whole entry): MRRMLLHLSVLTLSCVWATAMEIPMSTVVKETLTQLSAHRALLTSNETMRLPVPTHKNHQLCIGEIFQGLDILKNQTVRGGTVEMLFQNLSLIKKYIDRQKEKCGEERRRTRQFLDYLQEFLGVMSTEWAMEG
Conditions: 50 uM

inhibition: 70.2%
SMILES: CCCC1O[C@H]2C[C@H]3[C@@H]4CCC5=CC(=O)C=C[C@]5(C)[C@H]4[C@@H](O)C[C@]3(C)[C@]2(C(=O)CO)O1 (stereo partly specified)
